The test system of experiment [1] is creatine kinase. Kind of experiment: Serum creatine kinase level in MDX mice. The following applies: once per week for four weeks, serum one week after the last injection.
For experiment [2], the system named is Murine DMD exon 23. Kind of experiment: Exon 23 skipping (RT-PCR) in muscle tissue of MDX mice.
The subject of experiment [3] is Human CD33 exon 2. Put plainly: CD33 exon 2 skipping (RT-PCR) in differentiated THP1 cells. The format is cell-based. The following applies: differentiated THP1 cells treated for 1 day, then full growth medium.
Experiment [4] concerns dystrophin. Kind of experiment: Dystrophin protein expression (Western blot, immunohistochemistry) in MDX mice. The following applies: repeated dosing study, quantification of dystrophin protein. (In general: A western blot detects proteins with antibodies after separation by electrophoresis.)

Regarding “5′-GGCCAAACCTCGGCTTACCTGAAAT-3′ (all PMO monomers)”, the “serum creatine kinase level” value in experiment [1] is given as “did not significantly reduce the elevated serum CK level”. With “5′-GGCCAAACCTCGGCTTACCTGAAAT-3′-C3NH-PEG4-BCN+Ac-NLS-Lys(CPP12)-PEG12-K(N3) (all PMO monomers)”, the “performance of CPP12 with Nuclear Localization Sequence versus CPP12 alone” value in experiment [2] is listed as “outperformed CPP12 alone significantly”.

As to “5′-GTAACTGTATTTGGTACTTCC-3′ + CPP12-PEG12-K(CPP12)-PEG12-TFP (all PMO monomers)”, the “period of sustained CD33 exon 2 skipping” value in experiment [3] is > 8 days. Consider “5′-GGCCAAACCTCGGCTTACCTGAAAT-3′-click-K-PEG12-Lys(CPP12)-NLS-Ac (all PMO monomers)”, for which the “cells positive for dystrophin in cardiac tissue” value in experiment [4] is on record as 40%. For “5′-GGCCAAACCTCGGCTTACCTGAAAT-3′-C3NH-PEG4-BCN+Lys(N3)-miniPEG-NLS-ss-bA-bA-CPP12 (all PMO monomers)”, in experiment [2], the “performance of CPP12 with Nuclear Localization Sequence versus CPP12 alone” value is “outperformed CPP12 alone significantly”.

Values taken from US20240358845A1 (priority 2021, published 2024).
